The text below walks through data of patent US10556905B2, “Processes for preparing a diazabicyclooctane compound” (priority 2012, dated 2020).

By UniProt entry, the sequences of proteins in these tests, tags left out. Residues count along the entry.
UniProt Q9F663, 25-293, looked up: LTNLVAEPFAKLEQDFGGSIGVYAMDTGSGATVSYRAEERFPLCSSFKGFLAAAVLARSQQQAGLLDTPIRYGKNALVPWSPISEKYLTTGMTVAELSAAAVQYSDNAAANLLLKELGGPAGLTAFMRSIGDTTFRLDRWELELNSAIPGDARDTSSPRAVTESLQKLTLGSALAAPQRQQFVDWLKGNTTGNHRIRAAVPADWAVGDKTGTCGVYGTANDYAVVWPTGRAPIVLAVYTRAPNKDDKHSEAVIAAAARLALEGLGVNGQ

This test deals with T1, KPC-2 (Klebsiella pneumoniae, UniProt Q9F663).
T1 construct: AmpC, TEM-1, KPC-2 or OXA-2 domain excluding signal peptide was amplified with PCR; made in house; host or cells: Escherichia coli BL21 (DE3), pET-28b(+)
Briefly: β-Lactamase inhibitory activity (nitrocefin hydrolysis), KPC-2. Format: biochemical.

Molecules are shown by their SMILES.

`O=C(NC1CCNCC1)[C@@H]1CC[C@@H]2CN1C(=O)N2OS(=O)(=O)O` [MK-7655, reference compound] registered an IC50 of 100 to 1000 nM.

By IC50 is commonly meant the point on the concentration scale where inhibition reaches its midpoint. Lower therefore signals higher potency.
